# Target: 5-hydroxytryptamine receptor 1A (Homo sapiens, UniProt P08908)
# By UniProt entry, the sequences of proteins in these tests, tags left out.
# UniProt P08908, whole entry: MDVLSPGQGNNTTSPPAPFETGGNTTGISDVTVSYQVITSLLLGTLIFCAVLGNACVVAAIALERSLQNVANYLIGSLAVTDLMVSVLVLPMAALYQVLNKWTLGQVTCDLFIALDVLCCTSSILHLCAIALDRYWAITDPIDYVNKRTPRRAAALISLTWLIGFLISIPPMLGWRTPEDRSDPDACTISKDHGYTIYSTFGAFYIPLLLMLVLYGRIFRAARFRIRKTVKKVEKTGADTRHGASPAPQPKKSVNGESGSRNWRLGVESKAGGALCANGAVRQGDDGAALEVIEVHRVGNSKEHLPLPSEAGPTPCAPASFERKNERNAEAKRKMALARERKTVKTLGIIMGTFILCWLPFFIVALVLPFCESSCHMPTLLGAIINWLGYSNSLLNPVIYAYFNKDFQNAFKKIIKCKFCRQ
# Assay: Agonist activity at human 5HT1A receptor expressed in human HeLa cells assessed as inhibition of forskolin-stimulated cAMP production pretreated 20 mins before forskolin challenge measured after 2 hrs by RIA relative to control
# Format: functional, cell-based
smiles,measurement,value
O=C1C2CCCN2C(=O)N1CCCCNCC1CCc2ccccc2O1 (racemic),Emax,94.6%
